Consider one molecule from publication PMC6193938, “Characterization of a novel AICARFT inhibitor which potently elevates ZMP and has anti-tumor activity in murine models” (Scientific Reports, 2018).

Sequences of proteins named here, by UniProt entry; tags and fusion partners are left off. A change or cut given only in a name is not applied to a line headed by its entry.
UniProt P31939: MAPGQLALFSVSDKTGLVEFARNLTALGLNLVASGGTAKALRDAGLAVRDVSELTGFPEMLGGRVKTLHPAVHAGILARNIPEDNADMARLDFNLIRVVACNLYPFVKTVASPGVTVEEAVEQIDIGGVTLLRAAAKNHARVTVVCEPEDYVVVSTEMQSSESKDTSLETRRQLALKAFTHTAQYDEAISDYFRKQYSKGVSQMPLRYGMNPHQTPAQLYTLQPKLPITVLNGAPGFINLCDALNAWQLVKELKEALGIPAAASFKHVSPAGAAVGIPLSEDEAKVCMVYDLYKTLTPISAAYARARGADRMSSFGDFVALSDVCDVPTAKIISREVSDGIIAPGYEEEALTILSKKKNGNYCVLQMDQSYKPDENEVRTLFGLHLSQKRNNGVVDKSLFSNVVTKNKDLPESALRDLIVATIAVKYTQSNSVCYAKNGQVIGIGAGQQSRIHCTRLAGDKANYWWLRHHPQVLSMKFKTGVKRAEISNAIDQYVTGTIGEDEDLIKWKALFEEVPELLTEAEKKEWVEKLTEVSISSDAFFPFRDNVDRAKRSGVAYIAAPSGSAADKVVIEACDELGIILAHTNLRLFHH

The target in this test is ATIC (AICARFT) (Homo sapiens, UniProt P31939). The experiment in a line: Folate dependent enzyme assay, conversion of ZMP to IMP (LC-MS). The class given is biochemical. The source says: Human ATIC (accession number: NM_004044.6) cDNA was purchased from Openbiosystem Co. (Cat# MHS1011-62310, Clone ID: 4300570, accession: BC008879). Human TS (accession number: NM_001071.2) cDNA was purchased from Invitrogen (Clone ID: 3138877). Human SHMT (accession number: NM_004169.3) cDNA was purchased from Openbiosystem Co. (Cat# MHS1010-9204609, Clone ID: 4523709, accession: BC038598). Human MTHFD1 (accession number: NM_005956.3) cDNA was purchased from Openbiosystem Co. (Cat# MHS1011-169900, Clone ID: 3508998, accession: BC009806), which contains two mutations and was fixed by PCR-based mutagenesis. The human MTHFD2 (accession number: NM_006636.3) and MTHFD2L (accession number: NM_001144978.1) cDNAs were synthesized at GenScript. The nucleotide sequences encoding full-length human AICARFT, TS, SHMT, MTHFD1, and partial sequences MTHFD2 (32–350) and MTHFD2L (46–347) were inserted into pET21d (Novagen) vector with an N-terminal HIS tag. Bacterial BL21 (DE3) (Novagen) was used as an expression host, and protein purification is described in supplemental material. […]
Catalytic activity was assayed under the listed reaction conditions using a liquid chromatograph and either fluorescence or mass spectrometric detection as indicated. […]

What is called IC50 is the concentration that inhibits the measured activity by half. A low value points to greater potency. Turning to `O=c1[nH]ccc2cc(F)c(NS(=O)(=O)c3ccc(N4CC[C@@H](O)C4)s3)cc12` [LSN3213128, N-(6-Fluoro-1-oxo-1,2-dihydroisoquinolin-7-yl)-5-[(3R)-3-hydroxypyrrolidin-1-yl]thiophene-2-sulfonamide], the IC50 was determined as 0.016 µM.
